Values joined by “and” are separate entries in the source; they are usually repeats but may differ in a detail not shown here. Equal values may be shown once.
Tested on: sodium channel
Assay: veratrine-evoked uptake of [14C]guanidine into rat forebrain synaptosomes ([14C]guanidine flux)
Assay type: biochemical

Q: Which “Hill (uptake of [14C]guanidine)” value does the source give for `Nc1nnc(-c2cccc(Cl)c2Cl)c(N)n1` [Example 1, 5(3)-amino-6-(2,3-dichlorophenyl)-2,3(2,5)-dihydro-3(5)-imino-1,2,4-triazine, reference compound] here?
A: 0.93 and 0.71
